Converted amounts (≈) assume the structure as drawn.
How the values were obtained:
[1] = test system: human Tmolt3 acute lymphoblastic T cell leukemia; assay: Cytotoxicity, Tmolt3; details: trypan blue exclusion
[2] = test system: HeLa-S^3 suspended cervical carcinoma; assay: Cytotoxicity, HeLa-S3; details: hela-s3 cells
[3] = test system: L1210 leukemia; assay: in vivo L1210 leukemia screen; details: 20 mg/kg/day
[4] = test system: glioma EH 118 MG; assay: Cytotoxicity, glioma EH 118 MG; details: eh 118 mg cells
[5] = test system: osteosarcoma TE418; assay: Cytotoxicity, osteosarcoma TE418; details: te418 cells
[6] = Hypolipidemic screen in normal mice; details: CF1 male mice, IP, N = 6
[7] = test system: murine L1210 lymphoid leukemia; assay: Cytotoxicity, L1210 lymphoid leukemia; details: trypan blue exclusion
[8] = test system: Lewis lung carcinoma; assay: In vivo Lewis lung carcinoma activity; details: 8 mg/kg/day I.P.
[9] = test system: lung bronchogenic MB-9812; assay: Cytotoxicity, lung bronchogenic MB-9812; details: for ED50 Cytotoxicity, Human Lung Bronchogenic: concentration which inhibits 50% of cell growth
[10] = test system: P388 lymphocytic leukemia; assay: Cytotoxicity, P388 lymphocytic leukemia; details: for ED50 Cytotoxicity, P388 Lymphocytic Leukemia: p388 cells
[11] = test system: KB epidermoid nasopharynx; assay: Cytotoxicity, KB epidermoid nasopharynx; details: for ED50 Cytotoxicity, Human KB: kb cells
[12] = test system: Ehrlich ascites carcinoma; assay: in vivo Ehrlich ascites carcinoma screen; details: 20 mg/kg/day I.P., CF1 male mice
[13] = Anti-inflammatory activity, carrageenan paw; details: CF1 Mice, 20 mg/kg × 2 (table head; b1373: 8 mg/kg i.p. 3 hours and 30 minutes before carrageenan)
[14] = test system: colorectal adenocarcinoma SW480; assay: Cytotoxicity, colorectal adenocarcinoma SW480; details: sw480 cells
[15] = test system: P388 lymphocytic leukemia; assay: in vivo P388 lymphocytic screen; details: 20 mg/kg/day I.P.
[16] = molecular target: DNA topoisomerase II (HeLa) (Homo sapiens, UniProt P11388); assay: DNA topoisomerase II inhibition (unknotting of knotted DNA); details: one hour reaction, agarose gel

The chains behind the UniProt entries cited, without tags or fusion partners. Where a name states a change or a piece, a line headed by the entry shows the natural chain unless it says otherwise.
UniProt P11388: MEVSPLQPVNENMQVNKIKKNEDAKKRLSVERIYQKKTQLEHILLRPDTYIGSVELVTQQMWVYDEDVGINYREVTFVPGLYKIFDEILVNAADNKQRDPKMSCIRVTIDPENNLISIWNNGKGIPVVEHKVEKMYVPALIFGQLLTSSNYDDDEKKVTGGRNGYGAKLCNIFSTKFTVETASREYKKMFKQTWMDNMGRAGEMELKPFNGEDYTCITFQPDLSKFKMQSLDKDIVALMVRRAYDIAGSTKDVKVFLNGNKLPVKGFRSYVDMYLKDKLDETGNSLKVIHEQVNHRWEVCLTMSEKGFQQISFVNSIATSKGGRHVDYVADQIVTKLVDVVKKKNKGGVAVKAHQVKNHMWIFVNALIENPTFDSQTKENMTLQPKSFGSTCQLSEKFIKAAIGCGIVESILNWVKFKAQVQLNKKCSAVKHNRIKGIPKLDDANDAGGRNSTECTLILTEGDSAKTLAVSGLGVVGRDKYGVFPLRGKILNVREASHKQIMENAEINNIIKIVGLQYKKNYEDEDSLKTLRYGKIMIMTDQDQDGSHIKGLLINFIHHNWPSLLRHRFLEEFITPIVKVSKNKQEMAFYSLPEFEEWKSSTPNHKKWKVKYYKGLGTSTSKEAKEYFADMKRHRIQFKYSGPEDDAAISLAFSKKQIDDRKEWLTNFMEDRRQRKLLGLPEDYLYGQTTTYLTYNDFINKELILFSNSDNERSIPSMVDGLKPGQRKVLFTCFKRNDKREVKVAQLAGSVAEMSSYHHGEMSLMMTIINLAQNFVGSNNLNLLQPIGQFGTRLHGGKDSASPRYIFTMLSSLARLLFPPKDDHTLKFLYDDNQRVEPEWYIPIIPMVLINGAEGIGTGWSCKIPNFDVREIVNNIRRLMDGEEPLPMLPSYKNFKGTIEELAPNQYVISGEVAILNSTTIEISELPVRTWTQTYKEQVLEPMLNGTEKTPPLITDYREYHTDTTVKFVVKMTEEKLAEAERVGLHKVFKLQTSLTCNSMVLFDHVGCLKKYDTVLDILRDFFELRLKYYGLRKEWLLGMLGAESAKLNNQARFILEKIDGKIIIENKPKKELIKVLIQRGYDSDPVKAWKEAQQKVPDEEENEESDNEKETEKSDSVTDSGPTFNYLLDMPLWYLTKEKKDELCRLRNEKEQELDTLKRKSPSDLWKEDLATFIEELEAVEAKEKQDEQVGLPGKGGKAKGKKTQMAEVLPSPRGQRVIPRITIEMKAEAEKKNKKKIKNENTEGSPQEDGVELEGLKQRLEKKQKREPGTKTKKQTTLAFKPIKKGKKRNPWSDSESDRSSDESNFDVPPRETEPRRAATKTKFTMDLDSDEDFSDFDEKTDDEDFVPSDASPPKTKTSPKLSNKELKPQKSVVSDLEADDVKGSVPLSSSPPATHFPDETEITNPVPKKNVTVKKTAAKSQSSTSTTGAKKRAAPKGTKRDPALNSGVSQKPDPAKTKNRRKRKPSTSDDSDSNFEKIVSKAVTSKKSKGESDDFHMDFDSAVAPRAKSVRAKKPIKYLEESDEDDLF

| SMILES | ED50 Cytotoxicity, Human lymphocyte Tmolt3 [1] | ED50 Cytotoxicity, Human HeLa-S^3 [2] | T/C%, L1210 leukemia screen in vivo [3] | ED50 Cytotoxicity, Human Glioma [4] | ED50 Cytotoxicity, Human Osteo-Sarcoma [5] | Serum Cholesterol Day 9 ([6]; 8 Mg/kg/day) | Serum Cholesterol Day 16 ([6]; 8 Mg/kg/day) | Serum Triglycerides Day 16 ([6]; 8 Mg/kg/day) | ED50 Cytotoxicity, L1210 Lymphoid Leukemia [7] | T/C%, in vivo Lewis lung carcinoma [8] | ED50 Cytotoxicity, Human Lung Bronchogenic [9] | ED50 Cytotoxicity, P388 Lymphocytic Leukemia [10] | ED50 Cytotoxicity, Human KB [11] | inhibition of growth, in vivo Ehrlich ascites carcinoma [12] | % of Control, anti-inflammatory (paw weight increase) [13] | ED50 Cytotoxicity, Human Colon SW480 [14] | Inhibitory Concentration, Topoisomerase II [16] | other results |
| --- | --- | --- | --- | --- | --- | --- | --- | --- | --- | --- | --- | --- | --- | --- | --- | --- | --- | --- |
| N#C[BH2-][n+]1cc[nH]c1 | 2.93 µg/mL (≈ 27.4 µM) | 1.92 µg/mL (≈ 18 µM) | 125% | 3.22 µg/mL (≈ 30.1 µM) | 4.09 µg/mL (≈ 38.3 µM) | 78 ± 6% of Control | 67 ± 5% of Control | 67 ± 5% of Control | 5.12 µg/mL (≈ 47.9 µM) | 148% | 2.92 µg/mL (≈ 27.3 µM) | 4.83 µg/mL (≈ 45.2 µM) | 6.15 µg/mL (≈ 57.5 µM) | 66% | 99 % of Control | 4.16 µg/mL (≈ 38.9 µM) | – | – |
| O=C(O)[BH2-][NH+]1CCC(c2ccccc2)CC1 (stereo not shown) | 2.83 µg/mL (≈ 12.9 µM) | 1.23 µg/mL (≈ 5.61 µM) | inactive | 2.23 µg/mL (≈ 10.2 µM) | 7.06 µg/mL (≈ 32.2 µM) | 81 ± 6% of Control | 73 ± 5% of Control | 86 ± 7% of Control | 3.56 µg/mL (≈ 16.2 µM) | 141% | 4.96 µg/mL (≈ 22.6 µM) | 2.93 µg/mL (≈ 13.4 µM) | 6.54 µg/mL (≈ 29.9 µM) | 83% | 80 % of Control | 5.32 µg/mL (≈ 24.3 µM) | 100 µM | T/C%, in vivo P388 lymphocytic screen [15]: 135%; activity in the murine P388 lymphocytic screen (in words) ([10]; text summary of Table 4): active |
| COC(=O)[BH2-][NH+]1CCC(C)CC1 (stereo not shown) | 4.19 µg/mL (≈ 24.5 µM) | 2.03 µg/mL (≈ 11.9 µM) | inactive | 1.67 µg/mL (≈ 9.76 µM) | 6.26 µg/mL (≈ 36.6 µM) | – | – | – | 3.00 µg/mL (≈ 17.5 µM) | inactive | 3.72 µg/mL (≈ 21.7 µM) | 4.87 µg/mL (≈ 28.5 µM) | 2.18 µg/mL (≈ 12.7 µM) | – | – | 6.63 µg/mL (≈ 38.8 µM) | 100 µM | Serum Cholesterol Day 9 ([6]; 5 Mg/kg/day): 92 ± 6% of Control; Serum Cholesterol Day 16 ([6]; 5 Mg/kg/day): 83 ± 4% of Control; Serum Triglycerides Day 16 ([6]; 5 Mg/kg/day): 76 ± 6% of Control; activity against growth of lung bronchogenic tumor (in words) ([9]; text summary of Table 4): significant activity; activity in the KB nasopharynx screen (in words) ([11]; text summary of Table 4): good activity |
| Cn1cc[n+]([BH2-]C#N)c1 | 2.39 µg/mL (≈ 19.8 µM) | 2.40 µg/mL (≈ 19.8 µM) | inactive | 3.00 µg/mL (≈ 24.8 µM) | 6.86 µg/mL (≈ 56.7 µM) | 74 ± 7% of Control | 71 ± 8% of Control | 74 ± 6% of Control | 3.12 µg/mL (≈ 25.8 µM) | – | 2.66 µg/mL (≈ 22 µM) | 5.13 µg/mL (≈ 42.4 µM) | 7.18 µg/mL (≈ 59.4 µM) | 83% | 71 % of Control | 6.77 µg/mL (≈ 56 µM) | – | – |

Source: patent US5280119A, “Heterocyclic amine-boranes, and method of inhibiting DNA topoisomerase activity and/or combatting inflammation, hyperlipidemia, and/or neoplasia using amine-borane compounds” (dated 1994)
